Chains of the proteins cited; added tags and fusions are not shown.
UniProt P42866, whole entry: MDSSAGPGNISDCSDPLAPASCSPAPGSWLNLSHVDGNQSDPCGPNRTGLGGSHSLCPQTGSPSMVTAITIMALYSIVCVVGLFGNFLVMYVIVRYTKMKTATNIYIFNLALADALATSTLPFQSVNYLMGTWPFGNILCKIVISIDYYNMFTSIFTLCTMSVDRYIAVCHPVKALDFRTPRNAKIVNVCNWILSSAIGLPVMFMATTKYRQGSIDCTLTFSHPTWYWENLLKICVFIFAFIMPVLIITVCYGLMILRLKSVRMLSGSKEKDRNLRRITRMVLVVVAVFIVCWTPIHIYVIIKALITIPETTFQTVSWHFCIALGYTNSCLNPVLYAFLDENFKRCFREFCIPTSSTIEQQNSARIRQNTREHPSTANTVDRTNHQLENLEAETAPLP

According to ChEMBL document CHEMBL5360615, “Pharmacological and Physicochemical Properties Optimization for Dual-Target Dopamine D3 (D3R) and μ-Opioid (MOR) Receptor Ligands as Potentially Safer Analgesics” (J Med Chem, 2023):

Experiments:
Assay type in all cases: functional, cell-based
Mu-type opioid receptor [1] = target: T1, Mu-type opioid receptor (Mus musculus, UniProt P42866); experiment: Partial agonist activity at SNAP-tagged mouse MOR transfected in HEK293T cells coexpressing wild type Galpha-i2, venus-tagged Gbeta-1 (156 to 239 residues), venus-tagged Ggamma2 (1 to 155 residues) and Rluc8 fused masGRK3ct assessed as Galpha-i2 activation using coelenterazine as substrate incubated for 40 mins by BRET based GPA assay
Mu-type opioid receptor [2] = target: T1, Mu-type opioid receptor; experiment: Partial agonist activity at Rluc8 fused mouse MOR transfected in HEK293T cells coexpressing wild type GRK2 assessed as arrestin-3 recruitment using coelenterazine as substrate incubated for 40 mins by BRET assay
Mu-type opioid receptor [3] = target: T1, Mu-type opioid receptor; experiment: Partial agonist activity at Rluc8 fused mouse MOR transfected in HEK293T cells assessed as Nb33 recruitment using coelenterazine as substrate incubated for 40 mins by BRET assay

Question: How did the pEC50 (Mu-type opioid receptor [1]) turn out when `COc1ccsc1CNCC[C@@]1(c2ccccn2)CCOC2(CCCC2)C1` [OLICERIDINE] was run?
Answer: 8.62

Question: And the pEC50 (Mu-type opioid receptor [2])?
Answer: 7.49

Question: And the pEC50 (Mu-type opioid receptor [3])?
Answer: 7.23

pEC50: −log10 of the molar value.
